# According to ChEMBL document CHEMBL1240386, “Pharmacokinetics of antituberculosis drugs in pulmonary tuberculosis patients with type 2 diabetes” (Antimicrob Agents Chemother, 2010):
# Assay: Cmax in diabetic tuberculosis patient at 10 mg/kg, po and 10 mg/kg, iv by HPLC analysis
# Assay type: ADME, organism-based
# Settings: human, in vivo
smiles,measurement,value
CO[C@H]1/C=C/O[C@@]2(C)Oc3c(C)c(O)c4c(O)c(c(/C=N/N5CCN(C)CC5)c(O)c4c3C2=O)NC(=O)/C(C)=C\C=C\[C@H](C)[C@H](O)[C@@H](C)[C@@H](O)[C@@H](C)[C@H](OC(C)=O)[C@@H]1C [RIFAMPIN],Cmax,10500 ng/mL
